Literature values in patent EP0906335B1, “EBV TYPE B CTL EPITOPES” (THE COUNCIL OF THE QUEENSLAND INSTITUTE OF MEDICAL RESEARCH, priority 1996, dated 2008).

Tested on: HLA
Details: Table 4, from the cited reference; cited from earlier work

RKCCRAKFKQLLQHYR
HLA Restriction: HLA Cw6
